Reference: ChEMBL document CHEMBL3124778, “Structure-based design of new dihydrofolate reductase antibacterial agents: 7-(benzimidazol-1-yl)-2,4-diaminoquinazolines” (J Med Chem, 2014)

Experiment: Selectivity ratio of Ki for human DHFR to Ki for Staphylococcus aureus DHFR

Compound | Ratio Ki
Cc1cc2nc(-c3ccncc3)n(-c3ccc4c(N)nc(N)nc4c3)c2cc1C | 17000
Cc1cc2nc(-c3cccn3C)n(-c3ccc4c(N)nc(N)nc4c3)c2cc1C | > 1250
Cc1cc2nc(-c3cccs3)n(-c3ccc4c(N)nc(N)nc4c3)c2cc1C | 205000
Cc1cc2nc(-c3ccco3)n(-c3ccc4c(N)nc(N)nc4c3)c2cc1C | 135000
Cc1cc2nc(C3CCCO3)n(-c3ccc4c(N)nc(N)nc4c3)c2cc1C (stereo unspecified) | 3700
COc1cc2nc(-c3ccco3)n(-c3cc4nc(N)nc(N)c4cc3Cl)c2cc1OC | 25000
Cc1cc2nc(C3CCOC3)n(-c3ccc4c(N)nc(N)nc4c3)c2cc1C (stereo unspecified) | > 1000
Cc1cc2nc(-c3ccsc3)n(-c3ccc4c(N)nc(N)nc4c3)c2cc1C | 55000
Cc1cc2ncn(-c3ccc4c(N)nc(N)nc4c3)c2cc1C | 950
Cc1cc2nc(N3CCOCC3)n(-c3ccc4c(N)nc(N)nc4c3)c2cc1C | 1800
COc1ccc(-c2nc3cc(C)c(C)cc3n2-c2ccc3c(N)nc(N)nc3c2)cc1 | 6800
COc1cc2nc(-c3cccs3)n(-c3cc4nc(N)nc(N)c4cc3Cl)c2cc1OC | > 20000
Cc1cc2nc(-c3cccs3)n(-c3cc4nc(N)nc(N)c4cc3Cl)c2cc1C | > 100000
Cc1cc2nc(C3CC3)n(-c3ccc4c(N)nc(N)nc4c3)c2cc1C | 8300
Cc1cc2nc(-c3cncn3C)n(-c3ccc4c(N)nc(N)nc4c3)c2cc1C | 2600
Cc1cc2nc(-c3nccs3)n(-c3ccc4c(N)nc(N)nc4c3)c2cc1C | 46500
